Assay results as given in article PMC11239830, “Synthetic macrolides overcoming MLSBK-resistant pathogens” (Cell Discovery, 2024).

System: S. aureus
Assay: MICs and MBCs against selected S. aureus isolates
Type: cell-based, Staphylococcus aureus

Compound: CC[C@H]1OC(=O)[C@H](C)C(=O)[C@H](C)[C@@H](O[C@@H]2O[C@H](C)C[C@H](N(C)C)[C@H]2O)[C@](C)(OC)C[C@@H](C)C(=O)[C@H](C)[C@H]2N(CCCCn3cnc(-c4cccnc4)c3)C(=O)O[C@]12C [telithromycin, reference compound]
- MBC/MIC (S. aureus ATCC29213): > 8
- bactericidal or bacteriostatic by MBC/MIC (selected S. aureus isolates): bacteriostatic against all selected isolates
- MBC/MIC (strain 1, MRSA, i-ermA): > 8
- MBC/MIC (strain 2, MSSA, i-ermC): > 8
- MBC/MIC (strain 3, MSSA, i-ermC): > 8
- MBC/MIC (strain 4, MRSA, i-ermA): > 8
- MBC/MIC (strain 5, MRSA, i-ermC): > 8
- MBC/MIC (strain 6, MRSA, c-ermB): > 8
- MBC/MIC (strain 7, MRSA, c-ermB): > 8
- MBC/MIC (strain 10, MRSA, c-ermB): > 8
